Experimental data: ChEMBL document CHEMBL4257577, “Pyridinium Oximes with Ortho-Positioned Chlorine Moiety Exhibit Improved Physicochemical Properties and Efficient Reactivation of Human Acetylcholinesterase Inhibited by Several Nerve Agents” (2018)

By UniProt entry, the sequences of proteins in these tests, tags left out. Where a name states a change or a piece, a line headed by the entry shows the natural chain unless it says otherwise.
UniProt P06276, whole entry, looked up: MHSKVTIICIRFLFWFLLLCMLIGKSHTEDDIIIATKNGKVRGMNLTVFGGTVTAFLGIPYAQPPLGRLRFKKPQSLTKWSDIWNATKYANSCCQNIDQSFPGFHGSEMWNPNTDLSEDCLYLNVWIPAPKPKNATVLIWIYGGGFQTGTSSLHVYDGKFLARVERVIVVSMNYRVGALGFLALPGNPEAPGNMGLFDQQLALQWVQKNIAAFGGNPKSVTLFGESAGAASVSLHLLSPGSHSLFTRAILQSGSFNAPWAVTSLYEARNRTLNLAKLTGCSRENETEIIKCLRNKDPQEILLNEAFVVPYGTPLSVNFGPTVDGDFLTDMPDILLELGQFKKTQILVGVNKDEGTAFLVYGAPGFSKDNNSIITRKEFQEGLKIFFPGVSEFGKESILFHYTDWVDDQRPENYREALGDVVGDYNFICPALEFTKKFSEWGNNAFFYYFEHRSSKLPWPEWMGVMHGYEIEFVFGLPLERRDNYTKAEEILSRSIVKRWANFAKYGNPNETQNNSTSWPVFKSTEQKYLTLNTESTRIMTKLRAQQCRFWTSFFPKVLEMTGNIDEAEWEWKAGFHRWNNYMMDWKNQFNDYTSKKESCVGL
UniProt P22303: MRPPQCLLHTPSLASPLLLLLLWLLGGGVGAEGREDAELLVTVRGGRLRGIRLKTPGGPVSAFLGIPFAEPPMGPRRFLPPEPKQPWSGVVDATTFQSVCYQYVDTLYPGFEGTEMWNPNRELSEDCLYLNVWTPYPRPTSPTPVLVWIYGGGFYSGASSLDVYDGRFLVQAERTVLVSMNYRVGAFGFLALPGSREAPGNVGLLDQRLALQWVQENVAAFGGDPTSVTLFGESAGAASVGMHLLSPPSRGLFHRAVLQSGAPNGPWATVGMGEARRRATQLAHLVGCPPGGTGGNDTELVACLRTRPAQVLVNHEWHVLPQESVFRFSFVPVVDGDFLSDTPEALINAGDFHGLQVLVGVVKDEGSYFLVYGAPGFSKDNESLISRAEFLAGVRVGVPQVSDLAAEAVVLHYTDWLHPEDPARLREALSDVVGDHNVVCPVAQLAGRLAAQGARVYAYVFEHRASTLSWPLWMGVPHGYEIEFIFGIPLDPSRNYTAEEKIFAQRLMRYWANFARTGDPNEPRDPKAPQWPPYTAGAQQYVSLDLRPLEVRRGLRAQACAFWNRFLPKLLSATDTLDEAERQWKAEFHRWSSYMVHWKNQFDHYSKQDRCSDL

Assays:
[1] = molecular target: Cholinesterases; ACHE & BCHE (Homo sapiens) (UniProt P06276+P22303); experiment: Selectivity ratio of Ki for human plasma BChE to Ki for human erythrocytic AChE
[2] = molecular target: Acetylcholinesterase (Homo sapiens) (UniProt P22303); experiment: Reactivation of VX-inhibited AChE in whole human blood assessed as VX degradation at 0.1 mM after 45 mins by spectrophotometric analysis; parameters: scale not given: the % may be the effect or the level left
[3] = molecular target: Cholinesterase (Homo sapiens) (UniProt P06276); experiment: Reactivation of VX-inhibited BChE in whole human blood assessed as VX degradation at 0.1 mM after 45 mins by spectrophotometric analysis; parameters: scale not given: the % may be the effect or the level left
[4] = molecular target: Acetylcholinesterase (Homo sapiens) (UniProt P22303); experiment: Reactivation of VX-inhibited AChE in whole human blood assessed as VX degradation at 0.1 mM after 30 to 60 secs by spectrophotometric analysis; parameters: scale not given: the % may be the effect or the level left
[5] = molecular target: Acetylcholinesterase (Homo sapiens) (UniProt P22303); experiment: Reactivation of sarin-inhibited AChE in whole human blood assessed as sarin degradation at 0.1 mM after 90 mins by spectrophotometric analysis; parameters: scale not given: the % may be the effect or the level left
[6] = molecular target: Cholinesterase (Homo sapiens) (UniProt P06276); experiment: Reactivation of VX-inhibited BChE in whole human blood assessed as VX degradation at 0.1 mM after 30 to 60 secs by spectrophotometric analysis; parameters: scale not given: the % may be the effect or the level left
[7] = molecular target: Cholinesterase (Homo sapiens) (UniProt P06276); experiment: Reactivation of sarin-inhibited BChE in whole human blood assessed as sarin degradation at 0.1 mM after 90 mins by spectrophotometric analysis; parameters: scale not given: the % may be the effect or the level left
[8] = molecular target: Acetylcholinesterase (Homo sapiens) (UniProt P22303); experiment: Reactivation of sarin-inhibited AChE in whole human blood assessed as sarin degradation at 0.1 mM after 30 to 60 secs by spectrophotometric analysis; parameters: scale not given: the % may be the effect or the level left
[9] = molecular target: Cholinesterase (Homo sapiens) (UniProt P06276); experiment: Reactivation of sarin-inhibited BChE in whole human blood assessed as sarin degradation at 0.1 mM after 30 to 60 secs by spectrophotometric analysis; parameters: scale not given: the % may be the effect or the level left
[10] = molecular target: Acetylcholinesterase (Homo sapiens) (UniProt P22303); experiment: Reactivation of sarin-inhibited human recombinant AChE using acetylthiocholine iodide as substrate by Ellman spectrophotometric method relative to control
[11] = molecular target: Acetylcholinesterase (Homo sapiens) (UniProt P22303); experiment: Reactivation of tabun-inhibited human erythrocytic AChE using acetylthiocholine iodide as substrate by Ellman spectrophotometric method relative to control
[12] = molecular target: Acetylcholinesterase (Homo sapiens) (UniProt P22303); experiment: Reactivation of cyclosarin-inhibited human recombinant AChE using acetylthiocholine iodide as substrate by Ellman spectrophotometric method relative to control
[13] = molecular target: Acetylcholinesterase (Homo sapiens) (UniProt P22303); experiment: Reactivation of VX-inhibited human recombinant AChE at 500 uM using acetylthiocholine iodide as substrate by Ellman spectrophotometric method relative to control
[14] = molecular target: Acetylcholinesterase (Homo sapiens) (UniProt P22303); experiment: Reactivation of VX-inhibited human recombinant AChE using acetylthiocholine iodide as substrate assessed as maximal first-order reactivation rate by Ellman spectrophotometric method
[15] = molecular target: Acetylcholinesterase (Homo sapiens) (UniProt P22303); experiment: Reactivation of VX-inhibited human recombinant AChE using acetylthiocholine iodide as substrate assessed as overall second-order reactivation rate by Ellman spectrophotometric method
[16] = molecular target: Acetylcholinesterase (Homo sapiens) (UniProt P22303); experiment: Reactivation of sarin-inhibited human recombinant AChE using acetylthiocholine iodide as substrate assessed as maximal first-order reactivation rate by Ellman spectrophotometric method
[17] = molecular target: Acetylcholinesterase (Homo sapiens) (UniProt P22303); experiment: Reactivation of sarin-inhibited human recombinant AChE using acetylthiocholine iodide as substrate assessed as overall second-order reactivation rate by Ellman spectrophotometric method
[18] = molecular target: Acetylcholinesterase (Homo sapiens) (UniProt P22303); experiment: Reactivation of tabun-inhibited human erythrocytic AChE using acetylthiocholine iodide as substrate assessed as maximal first-order reactivation rate by Ellman spectrophotometric method
[19] = molecular target: Acetylcholinesterase (Homo sapiens) (UniProt P22303); experiment: Reactivation of tabun-inhibited human erythrocytic AChE using acetylthiocholine iodide as substrate assessed as overall second-order reactivation rate by Ellman spectrophotometric method
[20] = molecular target: Acetylcholinesterase (Homo sapiens) (UniProt P22303); experiment: Reactivation of cyclosarin-inhibited human recombinant AChE using acetylthiocholine iodide as substrate assessed as maximal first-order reactivation rate by Ellman spectrophotometric method
[21] = molecular target: Acetylcholinesterase (Homo sapiens) (UniProt P22303); experiment: Reactivation of cyclosarin-inhibited human recombinant AChE using acetylthiocholine iodide as substrate assessed as overall second-order reactivation rate by Ellman spectrophotometric method
[22] = molecular target: Acetylcholinesterase (Homo sapiens) (UniProt P22303); experiment: Reactivation of sarin-inhibited human recombinant AChE using acetylthiocholine iodide as substrate assessed as time required for maximal percentage of reactivation by Ellman spectrophotometric method
[23] = molecular target: Acetylcholinesterase (Homo sapiens) (UniProt P22303); experiment: Reactivation of VX-inhibited human recombinant AChE using acetylthiocholine iodide as substrate assessed as dissociation constant of conjugated enzyme-oxime complex by Ellman spectrophotometric method
[24] = molecular target: Acetylcholinesterase (Homo sapiens) (UniProt P22303); experiment: Reactivation of tabun-inhibited human erythrocytic AChE using acetylthiocholine iodide as substrate assessed as time required for maximal percentage of reactivation by Ellman spectrophotometric method
[25] = molecular target: Acetylcholinesterase (Homo sapiens) (UniProt P22303); experiment: Reactivation of sarin-inhibited human recombinant AChE using acetylthiocholine iodide as substrate assessed as dissociation constant of conjugated enzyme-oxime complex by Ellman spectrophotometric method
[26] = molecular target: Acetylcholinesterase (Homo sapiens) (UniProt P22303); experiment: Reactivation of cyclosarin-inhibited human recombinant AChE using acetylthiocholine iodide as substrate assessed as time required for maximal percentage of reactivation by Ellman spectrophotometric method
[27] = molecular target: Acetylcholinesterase (Homo sapiens) (UniProt P22303); experiment: Reactivation of tabun-inhibited human erythrocytic AChE using acetylthiocholine iodide as substrate assessed as dissociation constant of conjugated enzyme-oxime complex by Ellman spectrophotometric method
[28] = molecular target: Acetylcholinesterase (Homo sapiens) (UniProt P22303); experiment: Reactivation of VX-inhibited human recombinant AChE using acetylthiocholine iodide as substrate assessed as time required for maximal percentage of reactivation at 500 uM by Ellman spectrophotometric method
[29] = molecular target: Acetylcholinesterase (Homo sapiens) (UniProt P22303); experiment: Reactivation of cyclosarin-inhibited human recombinant AChE using acetylthiocholine iodide as substrate assessed as dissociation constant of conjugated enzyme-oxime complex by Ellman spectrophotometric method

`NC(=O)c1cc[n+](CCC[n+]2ccc(/C=N/O)cc2)cc1` gave a Ratio Ki [1] of 9, an Activity [2] of 80 to 85% and an Activity [3] of 80 to 85%. The Activity [4] was under 25%, the Activity [5] was 80 to 85% and the Activity [6] was under 25%. The Activity [7] was 80 to 85%, the Activity [8] was under 25% and the Activity [9] was under 25%. The %max [10] was 80%, the %max [11] was 100% and the %max [12] was 100%. The %max [13] was 100%, the K [14] was 1.1 min⁻¹ and the K [15] was 19.7 M⁻¹ s⁻¹. It also gave a K [16] of 1.2 min⁻¹, a K [17] of 60.7 M⁻¹ s⁻¹ and a K [18] of 0.032 min⁻¹. For the same compound, the K [19] was 6.33 M⁻¹ s⁻¹, the K [20] was 1.2 min⁻¹ and the K [21] was 48.3 M⁻¹ s⁻¹. For the same compound, the TIME [22] was 0.333 h, the K [23] was 920 µM and the TIME [24] was 3 h. The K [25] was 320 µM, the TIME [26] was 0.0833 h and the K [27] was 85 µM. It also gave a TIME [28] of 0.333 h and a K [29] of 400 µM.
